Results reported in patent publication US11040027B2, “Protein kinase inhibitors for promoting liver regeneration or reducing or preventing hepatocyte death” (HEPAREGENIX GMBH, priority 2017, dated 2021).
Read-outs that look alike come from different tables or passages of the source.

Amino acid sequences for entries named in this document (tags omitted). Residues count along the entry.
UniProt P45983, 1-384 isoform P45983-2: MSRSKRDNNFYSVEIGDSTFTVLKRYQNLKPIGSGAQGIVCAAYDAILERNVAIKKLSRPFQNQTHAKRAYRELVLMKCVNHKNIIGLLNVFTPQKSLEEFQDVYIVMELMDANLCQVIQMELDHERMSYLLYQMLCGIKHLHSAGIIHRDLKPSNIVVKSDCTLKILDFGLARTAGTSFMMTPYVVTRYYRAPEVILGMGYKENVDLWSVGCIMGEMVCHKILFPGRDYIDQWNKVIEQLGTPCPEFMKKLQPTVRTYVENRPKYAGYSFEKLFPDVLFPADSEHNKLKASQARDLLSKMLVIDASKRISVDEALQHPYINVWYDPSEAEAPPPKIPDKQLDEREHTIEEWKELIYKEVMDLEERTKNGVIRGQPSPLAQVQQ
UniProt P15056, whole entry: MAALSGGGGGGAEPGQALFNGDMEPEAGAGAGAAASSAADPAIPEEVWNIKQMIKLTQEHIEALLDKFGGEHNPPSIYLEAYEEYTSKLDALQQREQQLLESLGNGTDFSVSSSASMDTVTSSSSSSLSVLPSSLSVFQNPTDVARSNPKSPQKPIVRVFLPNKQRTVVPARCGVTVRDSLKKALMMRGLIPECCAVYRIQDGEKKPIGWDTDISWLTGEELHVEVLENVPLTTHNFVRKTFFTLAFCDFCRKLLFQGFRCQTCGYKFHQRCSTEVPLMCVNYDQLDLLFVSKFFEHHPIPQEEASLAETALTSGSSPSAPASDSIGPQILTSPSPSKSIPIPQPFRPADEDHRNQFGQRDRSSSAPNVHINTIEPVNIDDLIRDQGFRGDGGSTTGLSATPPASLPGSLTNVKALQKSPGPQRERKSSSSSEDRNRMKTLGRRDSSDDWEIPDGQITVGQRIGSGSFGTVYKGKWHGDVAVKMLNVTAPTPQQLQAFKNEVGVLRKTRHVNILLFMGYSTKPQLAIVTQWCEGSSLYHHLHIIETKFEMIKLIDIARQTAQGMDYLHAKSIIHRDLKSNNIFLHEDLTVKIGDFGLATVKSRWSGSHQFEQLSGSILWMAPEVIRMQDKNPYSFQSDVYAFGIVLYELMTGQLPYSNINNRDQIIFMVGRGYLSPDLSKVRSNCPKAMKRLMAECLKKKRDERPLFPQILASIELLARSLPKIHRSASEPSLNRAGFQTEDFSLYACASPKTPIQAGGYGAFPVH

Assays:
[1] = target: JNK1 (Homo sapiens, UniProt P45983); experiment: KINOMEscan competition binding assay, selectivity JNK1 versus MKK4; details: ratio of percent of control
[2] = target: T1, MKK4 (Homo sapiens, UniProt P45985); experiment: KINOMEscan competition binding assay, MKK4; details: read-out: Potency MKK4 (derived from % of control values, PoC)
T1 sequence (P45985 84-399): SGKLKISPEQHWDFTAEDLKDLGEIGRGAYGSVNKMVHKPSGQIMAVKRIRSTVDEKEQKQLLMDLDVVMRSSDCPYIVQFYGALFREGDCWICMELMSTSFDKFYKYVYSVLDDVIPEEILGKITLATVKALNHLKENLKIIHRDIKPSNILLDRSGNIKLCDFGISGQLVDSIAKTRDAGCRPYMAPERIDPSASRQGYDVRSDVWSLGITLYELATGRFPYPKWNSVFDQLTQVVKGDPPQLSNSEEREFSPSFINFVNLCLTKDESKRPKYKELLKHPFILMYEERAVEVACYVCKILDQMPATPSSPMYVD

[3] = target: BRaf (Homo sapiens, UniProt P15056); experiment: KINOMEscan competition binding assay, selectivity BRaf versus MKK4; details: Test conc. 0.1 μM; ratio of percent of control; N/E* per footnote
Experimental: The assay was performed by combining three components: DNA-tagged kinase; immobilized ligand; and a test compound. The ability of the test compound to compete with the immobilized ligand was measured via quantitative PCR of the DNA tag. The technology is described in detail in Fabian, M. A. et al. A small molecule-kinase interaction map for clinical kinase inhibitors. Nat. […] Nat.
The test compounds were provided as 10 mM stock solutions. The test solutions at indicated final concentrations were prepared at DiscoverX.

[4] = target: T2, MKK7 (Homo sapiens, UniProt O14733); experiment: KINOMEscan competition binding assay, selectivity MKK7 versus MKK4; details: Test conc. 0.1 μM; ratio of percent of control; N/E* per footnote
T2 sequence (O14733 1-419): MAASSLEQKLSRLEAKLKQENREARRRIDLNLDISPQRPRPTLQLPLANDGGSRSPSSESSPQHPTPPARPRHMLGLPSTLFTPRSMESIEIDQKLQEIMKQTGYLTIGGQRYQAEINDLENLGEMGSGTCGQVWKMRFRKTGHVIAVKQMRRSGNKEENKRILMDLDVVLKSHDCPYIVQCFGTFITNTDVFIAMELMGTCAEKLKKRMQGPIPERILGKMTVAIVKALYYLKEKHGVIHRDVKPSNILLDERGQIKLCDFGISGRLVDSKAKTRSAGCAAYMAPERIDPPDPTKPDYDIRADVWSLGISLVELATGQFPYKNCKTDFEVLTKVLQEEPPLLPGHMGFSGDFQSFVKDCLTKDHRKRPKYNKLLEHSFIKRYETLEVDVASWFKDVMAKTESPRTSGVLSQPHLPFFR

[5] = target: T3, MKK4 active (Homo sapiens, UniProt P45985); experiment: Radiometric protein kinase assay, MKK4 active; assay type: biochemical
T3 construct: purchased ProQinase 0948-0000-1
T3 sequence (P45985 1-399): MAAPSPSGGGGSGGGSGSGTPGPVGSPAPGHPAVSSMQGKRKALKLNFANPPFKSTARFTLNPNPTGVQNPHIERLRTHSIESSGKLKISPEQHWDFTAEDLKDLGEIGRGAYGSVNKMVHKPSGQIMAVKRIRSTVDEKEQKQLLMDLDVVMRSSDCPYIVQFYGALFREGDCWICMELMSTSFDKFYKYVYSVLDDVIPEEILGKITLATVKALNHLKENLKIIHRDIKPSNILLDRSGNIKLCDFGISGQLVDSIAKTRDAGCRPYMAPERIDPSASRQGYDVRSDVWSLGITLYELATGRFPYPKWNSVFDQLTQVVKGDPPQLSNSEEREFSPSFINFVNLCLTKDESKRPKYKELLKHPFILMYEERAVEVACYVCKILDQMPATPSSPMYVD
Experimental: A radiometric protein kinase assay was used for measuring the kinase activity of the respective protein kinases. All kinase assays were performed in 96-well polypropylene plates. After the reactions were stopped, the assay mixtures were transferred to 96-well MSFC filter-plates (Millipore). The reaction mix was passed through the filter membrane by aspiration, the membrane was washed 3 times with 150 mM H3PO4, once with ethanol, dried and liquid scintillation cocktail was added. Radioactivity was determined by counting of the samples in a Microbeta multiwell scintillation counter (Wallac).
b) Single Kinases • 20 μl standard assay buffer • 5 μl compound in 10% DMSO • 20 μl enzyme-substrate mix • 10 μl of substrate solution
The reaction cocktails were incubated at 30° C. for 30 minutes.

[6] = Test conc 0.1 μM, N/E* = PoC for JNK1 = 100

Selectivity JNK1/MKK4 ([1]; Test conc 10 μM) | IC50 ([5]; MKK4 active, substrate JNK1 KRKR, ATP 0.2 μM, read-out: MKK4 (potency derived from IC50-values)) [nM] | Structure (SMILES) | remaining binding at 0.1 µM [2] [%] | Selectivity BRaf/MKK4 [3] | Selectivity MKK7/MKK4 [4] | Selectivity JNK1/MKK4 [1, 6] | IC50 [5] [nM]
>100 | – | CCCS(=O)(=O)Nc1ccc(F)c(C(=O)c2c[nH]c3ncc(-c4cccs4)cc23)c1F [Example 5, N-(2,4-Difluoro-3-(5-(thiophen-2-yl)-1H-pyrrolo[2,3-b]pyridine-3-carbonyl)phenyl)propane-1-sulfonamide] | 10 to 30 | 2.9 | 22 | – | –
1 | < 500 | CCCS(=O)(=O)Nc1ccc(F)c(C(=O)c2c[nH]c3ncc(-c4cccc(N)c4)cc23)c1F [Example 19, N-(3-(5-(3-Aminophenyl)-1H-pyrrolo[2,3-b]pyridine-3-carbonyl)-2,4-difluorophenyl)propane-1-sulfonamide] | 10 to 30 | 3.4 | 60 | – | –
– | – | CCCS(=O)(=O)Nc1ccc(C)c(C(=O)c2c[nH]c3ncc(-c4ccc(Cl)cc4)cc23)c1 [Example 26, N-(3-(5-(4-Chlorophenyl)-1H-pyrrolo[2,3-b]pyridine-3-carbonyl)-4-methylphenyl)propane-1-sulfonamide] | > 30 | – | – | – | –
– | – | CS(=O)(=O)Nc1cccc(C(=O)c2c[nH]c3ncc(-c4ccc(Cl)cc4)cc23)c1F [Example 35, N-(3-(5-(4-Chlorophenyl)-1H-pyrrolo[2,3-b]pyridine-3-carbonyl)-2-fluorophenyl)methanesulfonamide] | 10 to 30 | 3.3 | 2.9 | N/E* (PoC for JNK1 = 100) | –
– | – | CCCS(=O)(=O)Nc1ccc(F)c(C2(c3c[nH]c4ncc(-c5ccc(Cl)cc5)cc34)OCCO2)c1F [Example 104, N-(3-(2-(5-(4-chlorophenyl)-1H-pyrrolo[2,3-b]pyridin-3-yl)-1,3-dioxolan-2-yl)-2,4-difluorophenyl)propane-1-sulfonamide] | – | – | – | – | 1000 to 10000
– | – | CCCS(=N)(=O)Nc1ccc(F)c(C(=O)c2c[nH]c3ncc(-c4ccc(Cl)cc4)cc23)c1F (stereo not shown) [Example 112, N-(3-(5-(4-chlorophenyl)-1H-pyrrolo[2,3-b]pyridine-3-carbonyl)-2,4-difluorophenyl)propane-1-sulfonimidamide] | 10 to 30 | 1.4 | 3.8 | 3.5 | –
